Results as given in ChEMBL document CHEMBL1129278, “Binding of arylpiperazines, (aryloxy)propanolamines, and tetrahydropyridylindoles to the 5-HT1A receptor: contribution of the molecular lipophilicity potential to three-dimensional quantitative structure-affinity relationship models” (J Med Chem, 1996).

By UniProt entry, the sequences of proteins in these tests, tags left out.
UniProt P19327, whole entry: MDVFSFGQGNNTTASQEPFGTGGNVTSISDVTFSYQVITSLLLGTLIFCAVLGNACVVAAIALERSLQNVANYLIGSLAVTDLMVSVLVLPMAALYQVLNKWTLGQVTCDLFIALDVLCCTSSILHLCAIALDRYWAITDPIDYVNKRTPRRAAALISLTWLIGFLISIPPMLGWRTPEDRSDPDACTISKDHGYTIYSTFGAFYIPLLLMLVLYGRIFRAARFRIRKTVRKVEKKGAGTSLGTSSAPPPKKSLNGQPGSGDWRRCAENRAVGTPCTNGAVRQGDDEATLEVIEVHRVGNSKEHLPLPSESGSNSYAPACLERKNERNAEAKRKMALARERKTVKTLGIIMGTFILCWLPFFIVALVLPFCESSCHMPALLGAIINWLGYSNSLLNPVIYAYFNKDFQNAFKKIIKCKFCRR

Target: 5-hydroxytryptamine receptor 1A (Rattus norvegicus, UniProt P19327)

## NCCc1c[nH]c2ccc(O)cc12 [SEROTONIN]
  Ki: 4.79 nM
